Reference: patent US20230000812A1, “IBUPROFEN ESTER PRODRUG, PHARMACEUTICAL COMPOSITION, PREPARATION METHOD AND APPLICATION” (NANJING HERON PHARMACEUTICAL SCIENCE AND TECHNOLOGY CO., …, priority 2020, published 2023)

Experiment: Toxicity of metabolic by-products in the human body
Conditions: by-products according to the metabolic pathways in the human body

**Q.** For CCC(OC(=O)OC(C)C)OC(=O)C(C)c1ccc(CC(C)C)cc1 (stereo not shown), which “Toxicity (of metabolic by-products in the human body)” value (from here on “Toxicity”) is on record?
**A.** Low toxicity

**Q.** For CCOC(=O)OC(C)OC(=O)C(C)c1ccc(CC(C)C)cc1 (stereo not shown) [Compound N6], which “Toxicity” value is on record?
**A.** Low toxicity

**Q.** For CC(C)Cc1ccc(C(C)C(=O)OC(C)(C)OC(=O)OC(C)C)cc1 (stereo not shown), which “Toxicity” value is on record?
**A.** Low toxicity

**Q.** With COC(=O)OC(OC(=O)C(C)c1ccc(CC(C)C)cc1)C(C)C (stereo not shown) as the compound, how does the “Toxicity” value read?
**A.** Relatively high toxicity of

**Q.** Which “Toxicity” value does the source give for CC(C)Cc1ccc(C(C)C(=O)OC(C)OC(=O)OC(C)C)cc1 (stereo not shown) [Compound N2] here?
**A.** Low toxicity

**Q.** With CCC(OC(=O)OC1CCCCC1)OC(=O)C(C)c1ccc(CC(C)C)cc1 (stereo not shown) as the compound, how does the “Toxicity” value read?
**A.** Low toxicity

**Q.** Which “Toxicity” value does the source give for CC(C)Cc1ccc(C(C)C(=O)OC(C)OC(=O)OC2CCCCC2)cc1 (stereo not shown) here?
**A.** Low toxicity

**Q.** With CCOC(=O)OC(C)(C)OC(=O)C(C)c1ccc(CC(C)C)cc1 (stereo not shown) as the compound, how does the “Toxicity” value read?
**A.** Low toxicity

**Q.** For COC(=O)OC(C)OC(=O)C(C)c1ccc(CC(C)C)cc1 (stereo not shown), which “Toxicity” value is on record?
**A.** Relatively high toxicity of

**Q.** With CCOC(=O)OC(CC)OC(=O)C(C)c1ccc(CC(C)C)cc1 (stereo not shown) [Compound N9] as the compound, how does the “Toxicity” value read?
**A.** Low toxicity
